The text below walks through data of publication PMC3944073.

The target of this experiment is GFP-β-DGNLS fusion protein. Put plainly: AlphaScreen or HTRF; ALPHAScreen; His6-tagged GFP-β-DG-NLS at a fixed amount per well with increasing GST-ezrin, GST-IMPα2/β1 or GST alone (0-60 nM); nickel chelate acceptor beads and streptavidin donor beads; room temperature; apparent dissociation constants from sigmoidal fits. For orientation: Bead proximity is the source of the signal in Alpha formats.

“GST-tagged predimerized IMPα2/β1 heterodimer (from UniProt P52293 1-529; P70168 1-876) (complex)”: the Kd is 0.98 nM.
